We go through one compound from ChEMBL document CHEMBL1144502, “Synthesis and biological evaluation of imidazo[1,2-a]pyridine derivatives as novel PI3 kinase p110alpha inhibitors” (Bioorg Med Chem, 2007).

Protein sequences, listed by entry. Tags and fused reporters are not part of them. Lines headed by an entry give the natural chain unless they say otherwise; changes in a name come on top.
UniProt P42338: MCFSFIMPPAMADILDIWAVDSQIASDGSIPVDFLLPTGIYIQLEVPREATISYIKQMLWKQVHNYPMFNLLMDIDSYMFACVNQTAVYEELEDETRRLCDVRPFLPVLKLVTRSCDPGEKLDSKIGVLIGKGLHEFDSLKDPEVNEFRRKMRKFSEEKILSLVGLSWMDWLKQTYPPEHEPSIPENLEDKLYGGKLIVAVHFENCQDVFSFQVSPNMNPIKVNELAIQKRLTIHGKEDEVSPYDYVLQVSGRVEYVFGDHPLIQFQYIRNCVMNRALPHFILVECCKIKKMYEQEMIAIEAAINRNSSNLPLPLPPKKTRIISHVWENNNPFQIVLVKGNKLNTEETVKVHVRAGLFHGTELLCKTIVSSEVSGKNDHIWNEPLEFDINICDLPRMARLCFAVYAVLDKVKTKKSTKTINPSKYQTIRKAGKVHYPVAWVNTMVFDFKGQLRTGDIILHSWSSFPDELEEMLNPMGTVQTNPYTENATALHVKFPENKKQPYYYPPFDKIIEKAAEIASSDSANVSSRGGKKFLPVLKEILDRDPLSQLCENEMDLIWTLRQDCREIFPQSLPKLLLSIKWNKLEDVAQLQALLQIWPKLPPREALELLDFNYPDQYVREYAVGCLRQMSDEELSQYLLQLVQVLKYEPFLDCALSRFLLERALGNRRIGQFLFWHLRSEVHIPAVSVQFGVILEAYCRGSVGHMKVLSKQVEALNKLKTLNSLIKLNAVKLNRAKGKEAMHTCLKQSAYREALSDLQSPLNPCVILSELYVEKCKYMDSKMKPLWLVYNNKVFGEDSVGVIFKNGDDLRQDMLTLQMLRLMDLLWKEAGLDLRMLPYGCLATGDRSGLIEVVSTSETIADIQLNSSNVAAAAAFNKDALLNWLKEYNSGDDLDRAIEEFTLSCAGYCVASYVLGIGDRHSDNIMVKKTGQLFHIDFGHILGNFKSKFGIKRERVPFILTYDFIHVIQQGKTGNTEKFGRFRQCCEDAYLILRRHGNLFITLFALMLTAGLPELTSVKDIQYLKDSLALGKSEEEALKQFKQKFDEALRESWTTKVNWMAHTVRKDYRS
UniProt P48736: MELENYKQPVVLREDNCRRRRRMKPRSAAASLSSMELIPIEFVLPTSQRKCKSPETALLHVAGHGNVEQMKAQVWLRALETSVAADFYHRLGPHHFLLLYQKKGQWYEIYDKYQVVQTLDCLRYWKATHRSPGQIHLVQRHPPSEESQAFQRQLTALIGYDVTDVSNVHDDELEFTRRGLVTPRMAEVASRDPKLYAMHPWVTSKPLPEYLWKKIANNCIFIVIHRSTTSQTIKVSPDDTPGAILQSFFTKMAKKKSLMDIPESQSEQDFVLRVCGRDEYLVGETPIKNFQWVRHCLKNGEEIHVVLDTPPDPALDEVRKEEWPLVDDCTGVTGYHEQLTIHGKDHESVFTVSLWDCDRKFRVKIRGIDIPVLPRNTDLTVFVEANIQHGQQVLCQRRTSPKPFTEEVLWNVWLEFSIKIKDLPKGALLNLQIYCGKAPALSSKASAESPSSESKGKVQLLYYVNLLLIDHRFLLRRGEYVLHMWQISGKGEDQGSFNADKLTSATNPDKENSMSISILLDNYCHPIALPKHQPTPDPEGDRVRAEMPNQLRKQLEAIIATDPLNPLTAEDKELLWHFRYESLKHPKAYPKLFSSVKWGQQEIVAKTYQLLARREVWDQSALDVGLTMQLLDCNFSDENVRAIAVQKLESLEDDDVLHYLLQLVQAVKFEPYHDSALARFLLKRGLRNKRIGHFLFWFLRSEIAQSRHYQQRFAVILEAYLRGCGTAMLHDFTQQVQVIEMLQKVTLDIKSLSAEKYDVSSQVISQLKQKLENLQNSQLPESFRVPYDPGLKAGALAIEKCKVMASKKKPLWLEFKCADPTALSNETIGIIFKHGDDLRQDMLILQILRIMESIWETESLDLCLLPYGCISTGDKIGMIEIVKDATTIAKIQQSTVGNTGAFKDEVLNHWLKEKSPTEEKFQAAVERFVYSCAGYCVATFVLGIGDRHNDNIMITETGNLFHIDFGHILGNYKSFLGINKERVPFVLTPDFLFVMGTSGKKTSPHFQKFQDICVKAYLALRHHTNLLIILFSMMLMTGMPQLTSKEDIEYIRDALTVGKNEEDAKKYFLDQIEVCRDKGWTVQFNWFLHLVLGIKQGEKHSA

By IC50 is commonly meant the midpoint of a concentration-inhibition curve. High values mean weaker potency in that assay, low ones greater potency in that assay.

The target of test [1] is Phosphatidylinositol 4,5-bisphosphate 3-kinase catalytic subunit beta isoform (Homo sapiens, UniProt P42338). Put plainly: Inhibition of GST-tagged human PI3K p110-beta by SPA. Put shortly:
(§1)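 Radiometric SPA. Enzyme and compound (in DMSO) in 20 mM Tris-HCl pH 7.4, 160 mM NaCl, 2 mM DTT, 30 mM MgCl2, 0.4 mM EDTA, 0.4 mM EGTA. Run 120 min at room temperature. Stopped with wheat germ agglutinin-coated SPA beads in PBS, then centrifuged. IC50 is the mean of at least two determinations.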

Test [2] deals with Phosphatidylinositol 4,5-bisphosphate 3-kinase catalytic subunit gamma isoform (Homo sapiens, UniProt P48736). Briefly: Inhibition of His-tagged PI3K p110gamma by SPA. Put shortly: as §1

As to `O=c1cc(N2CCOCC2)oc2c(-c3ccccc3)cccc12` [LY-294002], the IC50 worked out at 340 nM in test [1] and 1600 nM in test [2].
